Assay results published in patent US10966968B2, “Co-administration of rosiglitazone and eicosapentaenoic acid or a derivative thereof” (Amarin Pharmaceuticals Ireland Limited, priority 2013, dated 2021).

Assay: Phase 1 open-label crossover drug-drug interaction study: rosiglitazone plasma pharmacokinetics without and with ethyl eicosapentaenoate
Details: (Rosiglitazone + EPA)/(Rosiglitazone alone)

- LSGM Ratio AUC0-inf: 0.90
- LSGM Ratio Cmax: 1.01
Compound: CN(CCOc1ccc(CC2SC(=O)NC2=O)cc1)c1ccccn1 (centres unmarked) [Rosiglitazone, rosiglitazone]
